The values that follow come from article PMC10643130, “Molecular basis for selective uptake and elimination of organic anions in the kidney by OAT1” (Nature Structural & Molecular Biology, 2023).

In data set [1] the target is T1, wild-type human OAT1 (HsOAT1) (Homo sapiens, UniProt Q4U2R8).
T1 sequence (Q4U2R8 1-563): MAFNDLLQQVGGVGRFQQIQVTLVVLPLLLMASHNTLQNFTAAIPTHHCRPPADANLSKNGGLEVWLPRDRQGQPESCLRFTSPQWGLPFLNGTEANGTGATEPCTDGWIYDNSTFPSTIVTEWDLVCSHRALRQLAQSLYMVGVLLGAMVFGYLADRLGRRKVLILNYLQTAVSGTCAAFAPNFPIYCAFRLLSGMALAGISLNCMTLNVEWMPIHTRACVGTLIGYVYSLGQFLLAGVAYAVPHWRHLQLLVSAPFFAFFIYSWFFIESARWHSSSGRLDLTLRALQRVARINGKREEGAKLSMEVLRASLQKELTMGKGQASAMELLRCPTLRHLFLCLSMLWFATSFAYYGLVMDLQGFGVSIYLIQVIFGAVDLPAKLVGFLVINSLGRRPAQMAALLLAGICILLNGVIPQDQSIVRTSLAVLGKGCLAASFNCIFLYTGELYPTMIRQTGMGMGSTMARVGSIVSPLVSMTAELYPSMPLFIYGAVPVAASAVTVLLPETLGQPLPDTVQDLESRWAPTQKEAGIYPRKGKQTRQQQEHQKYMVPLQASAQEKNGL
The data set can be described thus: Cell-based 6-CF transport assay, wild-type HsOAT1 in HeLa cells.

Data set [2] concerns the target T2, OAT1 Gly227Ala (G227A) mutant, human (Homo sapiens, UniProt Q4U2R8, G227A).
T2 sequence (Q4U2R8 1-563 G227A): T1 sequence (Q4U2R8 1-563) with G227A
The data set can be described thus: in vitro. The settings on record: pH 7.2.

In data set [3] the target is T3, OAT1 (wild-type human, HsOAT1) (Homo sapiens, UniProt Q4U2R8).
T3 sequence (Q4U2R8 1-563): T1 sequence (Q4U2R8 1-563)
The data set can be described thus: in vitro. The settings on record: pH 7.2.

Data set [4] deals with T4, human OAT1 Ser350Ala (S350A) (Homo sapiens, UniProt Q4U2R8, S350A).
T4 sequence (Q4U2R8 1-563 S350A): T1 sequence (Q4U2R8 1-563) with S350A
The data set can be described thus: Cell-based 6-CF transport assay, HsOAT1 Ser350Ala mutant. Conditions: 8 min, read-out: 6-CF uptake, Mean.

Data set [5] has as its target T5, OAT1 Ser350Ala (S350A) mutant, human (Homo sapiens, UniProt Q4U2R8, S350A).
T5 sequence (Q4U2R8 1-563 S350A): T1 sequence (Q4U2R8 1-563) with S350A
Described as above. The settings on record: human, pH 7.2.

For data set [6], the target named is T6, human OAT1 Gly227Ala (G227A) (Homo sapiens, UniProt Q4U2R8, G227A).
T6 sequence (Q4U2R8 1-563 G227A): T1 sequence (Q4U2R8 1-563) with G227A
The data set can be described thus: cell-based. The settings on record: 8 min, read-out: 6-CF uptake, Mean.

The target in data set [7] is T7, human OAT1 Tyr230Phe (Y230F) (Homo sapiens, UniProt Q4U2R8, Y230F).
T7 sequence (Q4U2R8 1-563 Y230F): T1 sequence (Q4U2R8 1-563) with Y230F
The data set can be described thus: Cell-based 6-CF transport assay, HsOAT1 Tyr230Phe mutant. Conditions: 8 min, read-out: 6-CF uptake, Mean.

Positions count from the first letter of the chain named. Several values for one entry are separate records, joined by “and”; a condition that tells them apart may be missing. Identical values can stand only once.

As usually defined, the IC50 is the point on the concentration scale where inhibition reaches its midpoint. Read a high IC50 as weaker potency.

As for `O=C(O)CCC(=O)C(=O)O` [α-KG, α-ketoglutarate], the “substrate quality in 6-CF assay” value in data set [1] (0.5 mM, uptake after 8 minutes, similar to literature ref 20) was “good substrate”. In addition, the “6-CF uptake, Mean” value in data set [1] (ED Fig 4g WT aKG, uM column 1) amounted to 73.9973%; in data set [1] (ED Fig 4g WT aKG, uM column 1.30103) it was 61.6%; in data set [1] (ED Fig 4g WT aKG, uM column 1.69897) it was 56.1833%; in data set [1] (ED Fig 4g WT aKG, uM column 2) it was 31.1737%; in data set [1] (ED Fig 4g WT aKG, uM column 2.30103) it was 20.4275%; in data set [1] (ED Fig 4g WT aKG, uM column 2.69897), 10.7041%. The “6-CF uptake, Mean” value in data set [1] (ED Fig 4g WT aKG, uM column 3) was 6.448%; in data set [1] (ED Fig 4d WT, compound at 0.5 uM) it was 89.2%; in data set [1] (ED Fig 4d WT, compound at 1 uM), 83.5%; in data set [1] (ED Fig 4d WT, compound at 10 uM), 72.1005%; in data set [1] (ED Fig 4d WT, compound at 20 uM), 61.9754%; in data set [1] (ED Fig 4d WT, compound at 50 uM) it was 53.2%. Moreover, the “6-CF uptake, Mean” value in data set [1] (ED Fig 4d WT, compound at 100 uM) is reported as 31.9795%; in data set [1] (ED Fig 4d WT, compound at 200 uM) it was 21.35%; in data set [1] (ED Fig 4d WT, compound at 500 uM) it was 11.2%; in data set [1] (ED Fig 4d WT, compound at 1000 uM) it was 5.62%; in data set [1] (Fig 1f WT, α-KG, uM column 0.69897) it was 82%; in data set [1] (Fig 1f WT, α-KG, uM column 1.30103), 73.9973%. Also, the “6-CF uptake, Mean” value is 61.6% in data set [1] (Fig 1f WT, α-KG, uM column 1.69897); 56.1833% in data set [1] (Fig 1f WT, α-KG, uM column 2); 31.1737% in data set [1] (Fig 1f WT, α-KG, uM column 2.30103); 20.4275% in data set [1] (Fig 1f WT, α-KG, uM column 2.69897); 10.7041% in data set [1] (Fig 1f WT, α-KG, uM column 3); 6.448% in data set [1] (Fig 1f WT, α-KG, uM column 3.30103). The figures for the IC50 at 8 min in data set [2], in data set [3] and in data set [5] were 209 ± 23 µM, 70 ± 3.8 µM and 90 ± 4 µM, respectively. The remaining activity at 1 µM was found to be 75% in data set [4] and 80.6% in data set [7]. In addition, the values for the remaining activity at 1.69897 µM in data set [4], in data set [6] and in data set [7] were 55.4%, 89.5% and 65.5%, respectively. Further, the remaining activity at 2 µM was found to be 38.2% in data set [4], 75.2% in data set [6] and 46.5% in data set [7]. Besides, the results for the remaining activity at 2.30103 µM in data set [4], in data set [6] and in data set [7] were 19.4%, 54.5% and 29.5%, respectively. Moreover, the remaining activity at 2.60206 µM in data set [4] came out at 8.3%. The remaining activity at 2.69897 µM came out at 6.5% in data set [4], 48.6% in data set [6] and 12.7% in data set [7]. For the same compound, the remaining activity at 0.69897 µM in data set [6] is 99.8%. Also, the figures for the remaining activity at 3 µM in data set [6] and in data set [7] were 35.2% and 8.5%, respectively. In data set [6], the remaining activity at 3.30103 µM stood at 15.2%.
On to malonate, for which the “6-CF transport in presence of dicarboxylate, single experiments” value in data set [1] (dicarboxylate 0.5 mM, 8 minutes, n = 8) was 84.3122% and 81.221% and 78.2045% and 76.7397% and 81.6542% and 89.6452% and 76.3215% and 79.7447%.
